Measurements as given in patent US11519901B2, “Method for screening for cancer therapeutic agent” (THE UNIVERSITY OF TOKYO, priority 2015, dated 2022).

Columns and labels:
[1] = tested on: lung cancer cell line A549 having wild-type EGFR; assay: PODXL expression by RT-PCR in A549 introduced with reprogramming factor (4F); format: cell-based, human; conditions: A549, gefitinib treatment upon 4F introduction; Gef 10 mM or 50 mM (FIG. 4B legend)
[2] = tested on: EGFR mutated lung cancer cell line HCC827; assay: PODXL expression by RT-PCR in HCC827 introduced with reprogramming factor (4F); format: cell-based, human; conditions: 4F-introduced HCC827, treated with IC50 concentration of drug
[3] = tested on: EGFR mutation lung cancer cell line HCC827; conditions: stated as known; cited from earlier work

COc1cc2ncnc(Nc3ccc(F)c(Cl)c3)c2cc1OCCCN1CCOCC1 [gefitinib]
PODXL expression [1]: did not increase
PODXL expression [2]: promoted
sensitivity of cell line to drug [3]: sensitive
